Assay results published in ChEMBL document CHEMBL4325833, “Discovery of a Potent, Selective, and Brain-Penetrant Small Molecule that Activates the Orphan Receptor GPR88 and Reduces Alcohol Intake” (J Med Chem, 2018).

Assay: Thermodynamic solubility of the compound at pH 7.4 after 24 hrs by LC-MS/MS analysis
Assay type: physicochemical
Details: buffer, pH 7.4, 24 h

CCCc1ccc(-c2ccc(N(C[C@@H](N)[C@@H](C)CC)C(=O)[C@@H]3C[C@H]3c3ccccn3)cc2)cc1
Therm_solubility: 46.1 µg/mL
